Literature values, collected in patent publication US9145555B2, “Integrated—ligand-responsive microRNAs” (California Institute of Technology, priority 2009, dated 2015).

Test system: 293 cells
Settings: higher theophylline concentrations; cited from earlier work

Q: For `Cn1c(=O)c2[nH]cnc2n(C)c1=O` [theophylline], which cytotoxicity is on record?
A: cytotoxicity
